Earlier results on one compound are cited in paper PMC7000758 (Nature Communications, 2020).

SMILES strings stand for the structures.

This data set deals with VEGF receptors. The note with it: cited from earlier work.

Regarding `CCN(CC)CCNC(=O)c1c(C)[nH]c(/C=C2\C(=O)Nc3ccc(F)cc32)c1C` [sunitinib], the Ki (read-out: reported level required to inhibit VEGF receptors, called Ki for VEGFR2 and VEGFR1) was 8 nM. In addition, for the setting “tissue equivalent of 8 nM”, the “reported level required to inhibit VEGF receptors” value is recorded as ~ 4 ng/g.
